In article PMC9997068, “Impact of Gastric pH Variations on the Release of Amorphous Solid Dispersion Formulations Containing a Weakly Basic Drug and Enteric Polymers” (Molecular Pharmaceutics, 2023):

Substance	polymer solubility (pH 5.5)	polymer solubility (pH 6.5)
hydroxypropyl methylcellulose acetate succinate [HPMCAS-LF]	1687 ± 47 µg/mL	> 20000 µg/mL
hydroxypropyl methylcellulose acetate succinate [HPMCAS-MF]	1401 ± 69 µg/mL	

Read-outs that look alike come from different tables or passages of the source.
